# Assay results from ChEMBL document CHEMBL1135915, “Structure-activity relationships in 1,4-benzodioxan-related compounds. 7. Selectivity of 4-phenylchroman analogues for alpha(1)-adrenoreceptor subtypes” (J Med Chem, 2002).
# Target: T1, Alpha-1A adrenergic receptor (Homo sapiens, UniProt P35348)
# T1 sequence (P35348 whole entry): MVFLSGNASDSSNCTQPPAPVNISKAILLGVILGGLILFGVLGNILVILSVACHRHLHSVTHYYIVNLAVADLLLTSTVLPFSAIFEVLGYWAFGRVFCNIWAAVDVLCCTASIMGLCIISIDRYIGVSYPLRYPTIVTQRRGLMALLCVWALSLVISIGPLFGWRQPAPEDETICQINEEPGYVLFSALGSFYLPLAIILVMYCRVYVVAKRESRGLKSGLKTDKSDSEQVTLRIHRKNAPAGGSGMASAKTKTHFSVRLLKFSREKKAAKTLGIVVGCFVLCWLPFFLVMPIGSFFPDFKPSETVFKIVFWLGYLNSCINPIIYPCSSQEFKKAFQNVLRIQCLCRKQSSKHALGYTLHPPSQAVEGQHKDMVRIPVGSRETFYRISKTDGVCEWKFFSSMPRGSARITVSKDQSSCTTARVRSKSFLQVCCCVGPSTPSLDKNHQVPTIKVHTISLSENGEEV
# Assay: Affinity constant on CHO cells expressing Human recombinant Alpha-1A adrenergic receptor
# Assay type: cell-based
# Details: read-out: pA2 (converted)
structure (smiles),measurement,value
COc1ccccc1N1CCN(CCN2C(=O)CC3(CCCC3)CC2=O)CC1 [BMY-7378],Kb,380 nM
